Legend:
[1] = molecular target: Kappa-type opioid receptor (Homo sapiens, UniProt P41145); format: cell-based, CHO
[2] = molecular target: T1, 3-oxo-5-alpha-steroid 4-dehydrogenase 2 (Homo sapiens, UniProt P31213)
T1 sequence (P31213 whole entry): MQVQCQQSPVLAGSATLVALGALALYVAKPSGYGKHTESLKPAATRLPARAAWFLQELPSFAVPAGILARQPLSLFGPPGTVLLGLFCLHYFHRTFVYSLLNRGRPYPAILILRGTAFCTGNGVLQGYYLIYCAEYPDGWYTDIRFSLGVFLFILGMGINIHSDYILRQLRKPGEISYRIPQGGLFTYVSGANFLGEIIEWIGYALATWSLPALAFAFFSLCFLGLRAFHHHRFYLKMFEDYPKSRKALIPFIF

Chains of the proteins cited; added tags and fusions are not shown. Lines headed by an entry give the natural chain unless they say otherwise; changes in a name come on top.
UniProt P41145: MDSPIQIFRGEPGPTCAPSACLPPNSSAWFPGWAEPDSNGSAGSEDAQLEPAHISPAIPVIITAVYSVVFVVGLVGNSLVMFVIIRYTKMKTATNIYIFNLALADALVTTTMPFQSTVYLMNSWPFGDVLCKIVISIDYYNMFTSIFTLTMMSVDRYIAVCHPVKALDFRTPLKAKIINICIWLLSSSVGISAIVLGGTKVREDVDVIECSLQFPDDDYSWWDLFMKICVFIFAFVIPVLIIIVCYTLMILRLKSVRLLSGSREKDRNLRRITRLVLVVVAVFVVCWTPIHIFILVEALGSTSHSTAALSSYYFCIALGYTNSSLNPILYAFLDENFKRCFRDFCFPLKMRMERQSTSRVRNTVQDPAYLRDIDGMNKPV
UniProt P62942, whole entry: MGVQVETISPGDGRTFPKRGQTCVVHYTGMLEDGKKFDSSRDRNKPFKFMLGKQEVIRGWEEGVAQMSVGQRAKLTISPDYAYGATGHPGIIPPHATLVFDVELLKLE

[3] = molecular target: T1, 3-oxo-5-alpha-steroid 4-dehydrogenase 2; remark: listed apart in the source
[4] = molecular target: Peptidyl-prolyl cis-trans isomerase FKBP1A (Homo sapiens, UniProt P62942); experiment: biochemical; format: cell-based

CC(C)C[C@H](NC(=O)[C@H](Cc1ccccc1)NC(=O)CNC(=O)C/C=C(\F)[C@@H](N)Cc1ccc(O)cc1)C(=O)O
EC50 [1]: > 10000 nM

C[C@]12C=CC(=O)N[C@@H]1CC[C@@H]1[C@@H]2CC[C@]2(C)[C@@H](C(=O)NC(c3ccccc3)(C(F)(F)F)C(F)(F)F)CC[C@@H]12
IC50 [2]: 20 nM | IC50 [3]: 1.8 nM

CC(NC(=O)[C@H]1CC[C@H]2[C@@H]3CC[C@H]4NC(=O)C=C[C@]4(C)[C@H]3CC[C@]12C)(c1ccccc1)C(F)(F)F (stereo partly specified)
IC50 [2]: 16 nM | IC50 [3]: 3.3 nM

COc1cc(C(=O)C(=O)N2CCCC[C@H]2C(=O)OC(CCCc2ccccc2)CCCc2cccnc2)cc(OC)c1OC (stereo partly specified)
Ki [4]: 0.3 nM
